Experimental data as given in patent US9505726B2, “Substituted biphenyl amides as P2X3 and P2X2/3 antagonists” (Roche Palo Alto LLC, priority 2009, dated 2016).

Biological target: T1, rat P2X3 receptor (Rattus norvegicus, UniProt P49654)
T1 construct: expressed in transfected cells; host or cells: CHO-K1
T1 sequence (P49654 1-397): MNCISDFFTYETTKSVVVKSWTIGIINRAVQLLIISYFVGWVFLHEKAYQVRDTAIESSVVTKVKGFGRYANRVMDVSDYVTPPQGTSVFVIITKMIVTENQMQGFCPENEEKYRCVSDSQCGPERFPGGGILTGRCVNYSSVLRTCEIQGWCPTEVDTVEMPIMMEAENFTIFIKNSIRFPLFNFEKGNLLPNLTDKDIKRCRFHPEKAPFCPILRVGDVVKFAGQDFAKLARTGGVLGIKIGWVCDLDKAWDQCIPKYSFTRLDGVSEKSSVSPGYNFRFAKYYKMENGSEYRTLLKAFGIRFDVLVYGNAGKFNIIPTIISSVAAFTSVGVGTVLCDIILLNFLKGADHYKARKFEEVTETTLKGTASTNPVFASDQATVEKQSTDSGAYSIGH
Assay: P2X3 FLIPR (Fluorometric Imaging Plate Reader) assay
Assay type: cell-based
Details: CHO-K1 cells transfected with cloned rat P2X3; agonist α,β-meATP 1 μM; Fluo-3 AM calcium fluorescence
Experimental: Representative compounds in accordance with the methods of the invention are shown in Table 1, with pIC50 values for the P2X3 receptor.
CHO-K1 cells were transfected with cloned rat P2X3 or human P2X2/3 receptor subunits and passaged in flasks. 18-24 hours before the FLIPR experiment, cells were released from their flasks, centrifuged, and resuspended in nutrient medium at 2.5×10^5 cells/ml. The cells were aliquoted into black-walled 96-well plates at a density of 50,000 cells/well and incubated overnight in 5% CO2 at 37° C. On the day of the experiment, cells were washed in FLIPR buffer (calcium- and magnesium-free Hank's balanced salt solution, 10 mM HEPES, 2 mM CaCl2, 2.5 mM probenecid; FB). […]
Test compounds (dissolved in DMSO at 10 mM and serially diluted with FB) or vehicle were added to each well (25 μl of a 4× solution) and allowed to equilibrate for 20 minutes at room temperature. The plates were then placed in the FLIPR and a baseline fluorescence measurement (excitation at 488 nm and emission at 510-570 nm) was obtained for 10 seconds before a 100 μl/well agonist or vehicle addition. […] Fluorescence was measured for an additional 2 minutes at 1 second intervals after agonist addition. A final addition of ionomycin (5 μM, final concentration) was made to each well of the FLIPR test plate to establish cell viability and maximum fluorescence of dye-bound cytosolic calcium. […]

P2X3 (pIC50 values for the P2X3 receptor) | SMILES
7.12 | CCN(C(=O)OC(C)C)c1cc(C(=O)NC(C)c2cnccn2)cc(-c2ccc(C)cc2)c1 (centres unmarked) [Compound 37, Ethyl-[4′-methyl-5-(1-pyrazin-2-yl-ethylcarbamoyl)-biphenyl-3-yl]-carbamic acid isopropyl ester]
7.12 | CCC(CC)C(=O)N(C)c1cc(C(=O)NC(C)c2cnccn2)cc(-c2ccc(C)cc2)c1 (centres unmarked) [Compound 47, 5-[(2-Ethyl-butyryl)-methyl-amino]-4′-methyl-biphenyl-3-carboxylic acid (1-pyrazin-2-yl-ethyl)-amide]
